Results published in patent US20260240823A1.

What was measured:
[1] = test system: BT474; assay: Cell cycle analysis; settings: BT474, 24 and 72 hours
Experimental: (§1) Cell lines were plated in duplicate in 25 mm tissue culture dishes or in 6-well plates and treated 24 hours later with the indicated concentrations of PF-05175157. Docetaxel (10 nM, as a positive control) or with a DMSO control. At 24- and 72-hours post-treatment, cells were harvested and fixed overnight in 70% ethanol. Cells were then washed in PBS, stained with 50 μg/ml Propidium Iodide (Abcam) containing 550 U/mL RNase A, and assayed for DNA content on an LSR Fortessa Cytometer (BD Biosciences). Analysis was carried out using FlowJo software (BD Biosciences).

[2] = test system: MDAMB468; assay: Cell cycle analysis; settings: MDAMB468, 24 and 72 hours
Experimental: as §1

[3] = test system: J000102184 patient derived xenograft model of triple negative breast cancer; assay: Mouse patient-derived xenograft (PDX) model; settings: for tumor growth compared to control: TNBC PDX J000102184, 20 mg/kg oral gavage BID
Experimental: The PDX experiments were performed by the In Vivo Services at The Jackson Laboratory Sacramento facility, according to an IACUC-approved protocol and in compliance with the Guide for the Care and Use of Laboratory Animals (National Research Council, 2011). The J000102184 patient derived xenograft model of triple negative breast cancer was tested in female NSG mice, NOD.Cg-Prkdc^scidIl2rg^tm1Wjl/SzJ (NSGTM: JAX 005557). Mice were housed in individually ventilated polysulfone cages with HEPA filtered air at a density of up to 5 mice per cage. The animal room was lighted entirely with artificial fluorescent lighting, with a controlled 12 h light/dark cycle (6 am to 6 pm light). The normal temperature and relative humidity ranges in the animal rooms were 22-26° C. and 30-70%, respectively. The animal rooms were set to have up to 15 air exchanges per hour. Filtered tap water, acidified to a pH of 2.5 to 3.0, and standard rodent chow was provided ad libitum. J000102184 tumor cells were injected into 7-week-old NSGTM mice at a volume of 40ul per mouse. Mice were enrolled when tumor volume reached between 100 to 200 mm^3. Body weights, clinical observations and digital caliper measurements were recorded two times weekly post enrollment. Animals that reached a body condition score of ≤2, a body weight loss of ≥20%, ulcerated tumors, or a tumor volume >2000 mm^3 were to be euthanized before study terminus.
On study day 0, dosing of mice began with PF-05175157. Group 1 was dosed with the vehicle comprised of 0.5% methycellulose in water. Group 2 was dosed with the 20 mg/kg of PF-05175157. Both groups were dosed twice daily by oral gavage for 4 weeks. On study day 43, tumor volumes were measured, and all animals were euthanized via CO2 asphyxiation. At take-down, tumors from all mice were harvested for FFPE.
Both, CDX and PDX data were analyzed with mixed effect models using lme4 R package. There were two fixed effects in the model: day of study and type of drug used (Vehicle or PF-05175157), and a random effect allowing for random intercept for each animal to include individual variability in tumor volume. The interaction term between two fixed effects was added to model the effects of drug on the rate of tumor growth.

[4] = test system: 4T1 mouse triple negative breast cancer cell line; assay: In vitro cell viability; settings: 4T1, 72 hours of exposure
Experimental: FIG. 8: inhibition of cell viability of the 4T1 mouse triple negative breast cancer cells by in vitro PF-05175157. The bar graphs depict cell viability normalized to vehicle (DMSO) exposure at different PF-05175157 concentrations and cell seeding densities. OMA (oligomycin) is positive control and the error bars show 95% confidence intervals around mean values of the data. Numbers in the table show % viability under different conditions.
The efficacy of PF-05175157 was also assessed using a 4T1 mouse triple negative breast cancer cell line in vitro. Significant dose dependent inhibition was observed after 72 hours of exposure (FIG. 8).

[5] = test system: 4 myeloma cell lines; assay: In vitro cell viability; settings: all 4 myeloma models, 72 hour exposure
[6] = test system: parental BT474 cells; assay: In vitro cell viability; settings: parental BT474, 72-hour exposure
[7] = test system: trastuzumab and pertuzumab resistant cells (BT-TPR1, BT-TPR2); assay: In vitro cell viability; settings: HER2-targeted therapy resistant BT474 clones, 72-hour exposure
[8] = test system: MCF7/FR (fulvestrant resistant subclone); assay: In vitro single agent efficacy
[9] = test system: MCF7; assay: In vitro single agent efficacy; settings: parental MCF7
[10] = test system: HC1500 human estrogen receptor positive breast cancer cell line xenografts; assay: Mouse cell line-derived xenograft (CDX) model; settings: HC 1500 xenograft, 320 mg/kg intraperitoneally daily x 5 days followed by 2 days off
[11] = test system: MDAMB468 xenograft; assay: Mouse cell line-derived xenograft (CDX) model
[12] = test system: 15 breast cancer cell lines; assay: In vitro cell viability assay (CellTitre-Glo), panel; settings: 10 μg/mL
[13] = test system: fulvestrant resistant MCF7 (MCF7/FR-Luc) xenograft; assay: Orthotopic fulvestrant resistant MCF-7 xenograft, IVIS imaging; settings: 20 mg/kg intraperitoneally once daily

With `Cc1nc2ccc(C(=O)N3CCC4(CC3)CC(=O)c3c(cnn3C(C)C)C4)cc2[nH]1` the “cells at G2/M phase” value [1] was “time dependent increase in cells at G2/M phase”, the “cells at G2/M phase” value ([1]; listed as PF05175157) was “trend towards G2/M cell cycle arrest” and the “cells at G2/M phase” value [2] was “time dependent increase in cells at G2/M phase”. The “cells at G2/M phase” value ([2]; listed as PF05175157) was “trend towards G2/M cell cycle arrest”, the “tumor growth compared to control” value [3] was “suppressed tumor growth” and the “tumor growth compared to control” value ([3]; listed as PF05175157) was “significantly delayed tumor growth”. For the same compound, the “median tumor volume after 33 days” value ([3]; TNBC PDX, 20 mg/kg gavage BID, 490.5 mm^3 in methylcellulose-treated mice) was 334.1 mm^3, the growth inhibition ([3]; TNBC PDX, 20 mg/kg oral gavage twice daily, vs methylcellulose controls) was 30% and the “inhibition of cell viability” value [4] was “Significant dose dependent inhibition”. For the same compound, the “inhibition of cell viability” value [5] was “dose-dependent inhibition”, the “in vitro growth inhibition” value [6] was “Significant in vitro growth inhibition” and the “in vitro growth inhibition” value [7] was “Significant in vitro growth inhibition”. For the same compound, the “single agent inhibitory effect” value [8] was “significant single agent inhibitory effect”, the “single agent inhibitory effect” value [9] was “significant single agent inhibitory effect” and the “single agent growth inhibition” value [10] was “Significant single agent growth inhibition”. For the same compound, the “single agent growth inhibition” value ([11]; MDA-MB-468 xenografts, 80 mg/kg and 320 mg/kg intraperitoneally once daily) was “dose dependent single agent growth inhibition”, the “effect on efficacy of low dose doxorubicin (combination)” value ([11]; MDA-MB-468 xenografts, intraperitoneal PF-05175157 with doxorubicin) was “increased the efficacy” and the “effect on efficacy of low dose vinorelbine (combination)” value ([11]; MDA-MB-468 xenografts, intraperitoneal PF-05175157 with vinorelbine) was “increased the efficacy”. For the same compound, the “tumor growth compared to control” value ([11]; MDAMB468 xenograft, intraperitoneally 20 mg/kg in DMSO) was “suppressed tumor growth”, the “median tumor volume after 40 days” value ([11]; MDAMB468 xenograft, intraperitoneally 20 mg/kg in DMSO, 303.3 mm^3 in DMSO-treated mice) was 244.5 mm^3 and the “tumor growth compared to control” value ([11]; MDAMB468 xenograft, intraperitoneally 20 mg/kg in DMSO, listed as PF05175157) was “significantly delayed tumor growth”. For the same compound, the “inhibition of cell viability / growth in breast cancer cell lines” value [12] was “significantly inhibited cell viability in all but 1 of the cell lines”, the “inhibition of cell viability / growth in breast cancer cell lines” value ([12]; listed as PF05175157) was “time and dose dependent growth inhibition in all but 1 of the 15 cancer cell lines” and the single agent activity [13] was “Significant single agent activity”.
